The target in the test is T1, pneumolysin (Ply) (Streptococcus pneumoniae serotype 2, UniProt Q04IN8).
T1 construct: made in house; host or cells: E. coli BL21(DE3)
The experiment in a line: cell-based. The note with it: IC50 (screening with hemolysis assays). Here is the method: Native human erythrocytes were taken into EDTA tubes. The erythrocytes were washed three times with PBS (0.15 M NaCl, 2.7 mM KCl, 8.1 mM Na2HPO4 and 1.5 mM KH2PO4) by centrifugation at 700× g for 10 min. The purified erythrocytes were stored at +4 °C. Erythrocytes (1% v/v) in PBS were mixed with 1 nM Ply and dilution series of polyphenol inhibitors in 96-well microtiter plates. The reaction was incubated for 30 min at 37 °C. The plates were centrifuged, and the supernatant was pipetted into flat-bottomed microtiter plates to measure the absorbance at 570 nm (VICTOR X4, PerkinElmer, Turku, Finland) of the released hemoglobin from lysed erythrocytes. The absorbances of triplicate measurements are presented as a function of inhibitor concentration. The IC50 values were calculated with Origin data analysis software (2016, OriginLab Corporation, Northampton, MA, USA).

The chains behind the UniProt entries cited, without tags or fusion partners.
UniProt Q04IN8, whole entry: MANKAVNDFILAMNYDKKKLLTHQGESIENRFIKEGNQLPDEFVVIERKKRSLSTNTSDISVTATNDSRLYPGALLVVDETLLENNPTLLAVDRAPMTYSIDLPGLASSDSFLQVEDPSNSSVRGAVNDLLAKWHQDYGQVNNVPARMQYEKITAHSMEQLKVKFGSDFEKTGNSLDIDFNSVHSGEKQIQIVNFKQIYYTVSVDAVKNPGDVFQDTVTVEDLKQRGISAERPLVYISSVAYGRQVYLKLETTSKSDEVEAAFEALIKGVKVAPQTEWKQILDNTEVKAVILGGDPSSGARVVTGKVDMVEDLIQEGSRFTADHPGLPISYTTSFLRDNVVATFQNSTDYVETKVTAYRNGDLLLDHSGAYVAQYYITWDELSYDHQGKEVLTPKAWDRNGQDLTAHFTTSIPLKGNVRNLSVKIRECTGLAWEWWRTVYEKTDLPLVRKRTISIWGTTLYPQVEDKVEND

SMILES strings stand for the structures.

One may read the IC50 as the concentration that inhibits the measured activity by half. Turning to `O=C(O)C[C@@H]1C(=O)O[C@H]2[C@H](OC(=O)c3cc(O)c(O)c(O)c3)[C@@H](OC(=O)c3cc(O)c(O)c4c3[C@H]1[C@H](O)C(=O)O4)[C@H](OC(=O)c1cc(O)c(O)c(O)c1)O[C@@H]2COC(=O)c1cc(O)c(O)c(O)c1` [Chebulinic acid], the IC50 is over 100 nM.

These data come from article PMC7766327, “Inhibition of Pneumolysin Cytotoxicity by Hydrolysable Tannins” (Antibiotics, 2020).
